# Values of other authors, collected in article PMC4793533 (BMC obesity, 2016).
# Conditions: 31 test persons with normal fat assimilation; oral doses, radioactively labelled; after 6 days; cited from earlier work
substance,measurement,value
triolein,Excreted in the faeces,less than 10%
